# Literature values, collected in article PMC5302413, “Bifunctional peptide-based opioid agonist/nociceptin antagonist ligand for dual treatment of nociceptive and neuropathic pain” (Pain, 2016).
# Tested on: rat model of neuropathic pain
# Details: IV, cited from earlier work
smiles,measurement,setting,value
CN(C)[C@]1(c2ccccc2)CC[C@]2(CC1)OCCc1c3cc(F)ccc3[nH]c12,"ED50 in rat model of neuropathic pain, converted",corresponding to 0.8 μg/kg,0.002 µmol/kg
same,ED50 in rat model of neuropathic pain,,0.8 µg/kg
